# According to US9700603B2, “Use of antidotes to coagulation inhibitors indicated in the prevention or treatment of thromboembolic pathologies” (LABORATOIRE FRANCAIS DU FRACTIONNEMENT ET DES …, priority 2013, dated 2017):
# Experiments:
# Format in all cases: biochemical
# [1] = tested on: thrombin generation in normal plasma pool; assay: Thrombin generation test (CAT), intrinsic pathway, cephalin alone
# Experimental: (§1) The thrombin generation test consists of activating coagulation ex vivo either using a mixture of tissue factor and phospholipids, or using cephalin and then measuring the concentration of thrombin generated over time.
# (§2) The reaction is started by the addition of 20 μL of Fluca-kit (substrate+CaCl2) which constitutes the start of the measurement of the appearance of thrombin. The appearance of fluorescence is measured on a fluorometer of the Fluoroskan Ascent type (ThermoLabsystems) at an excitation wavelength of 390 nm and emission wavelength of 460 nm. The thrombinograms (curves representing the intensity of fluorescence as a function of time) are then analyzed using the Thrombinoscope™ software which converts the fluorescence value to nM of thrombin by comparative calculation.
# The reagents, the automated equipment and the experimental protocol are identical to those described in Example 1.
# The thrombin generation tests are carried out on 80 μl of a normal plasma pool optionally containing FX and/or Rivaroxaban in the presence of 20 μl of cephalin (CK-Prest reconstituted with 5 mL of distilled H2O) and 20 μL fluca-kit (substrate+CaCl2).
# [2] = tested on: thrombin generation in normal plasma pool; assay: Thrombin generation test (TGT Fluoroskan), extrinsic pathway, TF 1 pM / PL 4 μM
# Experimental: The stock solution of rivaroxaban at 436 μg/mL is diluted in 5% DMSO in order to obtain intermediate concentrations which, added to the NPP (Normal Pool Plasma), give final concentrations of rivaroxaban in μg per mL of plasma.
# FX or FXa are introduced into the plasma without an incubation step.
# as §1
# The thrombin generation tests are carried out on 80 μl of a plasma pool optionally containing FX and/or Rivaroxaban in the presence either of 20 μl of PPP reagent (Stago) finally containing 5 pM of Tissue Factor (TF) and 4 μM of phospholipids (PL), or in the presence of 20 μL of cephalin (CK-Prest reconstituted with 5 mL of distilled H2O).
# as §2
# [3] = tested on: normal plasma pool; assay: Prothrombin time (PT) with RecombiPlastin
# [4] = 10 μg/mL of FX added to normal plasma
# [5] = FX 25 μg/ml added to normal plasma
# [6] = FX 100 μg/ml added to normal plasma
# [7] = FX (HTI) 10 μg/mL final in PNP + rivaroxaban 0.5 μg/ml
# [8] = FX (HTI) 25 μg/mL in PNP + rivaroxaban 0.5 μg/mL
# [9] = FX (HTI) 100 μg/mL in PNP + rivaroxaban 0.5 μg/mL
substance,measurement,setting,value
"FX (HTI): commercial human factor X (HTI), stock at 6.8 mg/mL; inactive zymogen of factor Xa",increase of total quantity of thrombin generated versus normal plasma,"[1]; 10 μg/mL of FX added to normal plasma, cephalin",19%
same,correction of plasma overloaded with rivaroxaban,"[1]; FX 10 μg/mL final, Rivaroxaban 0.35 μg/mL, intrinsic pathway",does not correct
same,ETP (endogenous thrombin potential),[1]; FX (HTI) 10 μg/mL final in PNP,1441 nM·min
same,LT (lag time),[1]; FX (HTI) 10 μg/mL final in PNP,17 min
same,Peak,[1]; FX (HTI) 10 μg/mL final in PNP,225.75 nM
same,ST (start time),[1]; FX (HTI) 10 μg/mL final in PNP,35.5 min
same,TTP (time to peak),[1]; FX (HTI) 10 μg/mL final in PNP,20.17 min
same,mVRI (mean velocity rate index),[1]; FX (HTI) 10 μg/mL final in PNP,71.21 nM/min
same,increase of height of the peak versus normal plasma,[2]; [4],7.3%
same,increase of total quantity of thrombin generated (ETP) versus normal plasma,[2]; [4],13%
same,correction of plasma overloaded with rivaroxaban,"[2]; FX 10 μg/mL final, rivaroxaban 0.5 μg/mL, 1 pM TF",does not correct
same,increase of height of the peak versus normal plasma,[2]; [5],9.5%
same,increase of total quantity of thrombin generated versus normal plasma,[2]; [5],13%
same,increase of height of the peak versus normal plasma,[2]; [6],37%
same,increase of total quantity of thrombin generated versus normal plasma,[2]; [6],16%
same,ETP (endogenous thrombin potential),[2]; FX (HTI) 10 μg/mL final in PNP,1244 nM·min
same,LT (lag time),[2]; FX (HTI) 10 μg/mL final in PNP,6.33 min
same,Peak,[2]; FX (HTI) 10 μg/mL final in PNP,136.38 nM
same,ST (start time),[2]; FX (HTI) 10 μg/mL final in PNP,35.5 min
same,TTP (time to peak),[2]; FX (HTI) 10 μg/mL final in PNP,11.17 min
same,mVRI (mean velocity rate index),[2]; FX (HTI) 10 μg/mL final in PNP,28.18 nM/min
same,LT (lag time),[2]; [7],25.83 min
same,Peak,[2]; [7],8 nM
same,TTP (time to peak),[2]; [7],53.67 min
same,mVRI (mean velocity rate index),[2]; [7],0.29 nM/min
same,ETP (endogenous thrombin potential),[2]; FX (HTI) 25 μg/mL in PNP,1285 nM·min
same,LT (lag time),[2]; FX (HTI) 25 μg/mL in PNP,5.55 min
same,Peak,[2]; FX (HTI) 25 μg/mL in PNP,118.82 nM
same,ST (start time),[2]; FX (HTI) 25 μg/mL in PNP,36.5 min
same,TTP (time to peak),[2]; FX (HTI) 25 μg/mL in PNP,11.06 min
same,mVRI (mean velocity rate index),[2]; FX (HTI) 25 μg/mL in PNP,21.56 nM/min
same,LT (lag time),[2]; [8],29.09 min
same,Peak,[2]; [8],11.22 nM
same,TTP (time to peak),[2]; [8],58.64 min
same,mVRI (mean velocity rate index),[2]; [8],0.38 nM/min
same,ETP (endogenous thrombin potential),[2]; FX (HTI) 100 μg/mL in PNP,1327 nM·min
same,LT (lag time),[2]; FX (HTI) 100 μg/mL in PNP,5.88 min
same,Peak,[2]; FX (HTI) 100 μg/mL in PNP,149.34 nM
same,ST (start time),[2]; FX (HTI) 100 μg/mL in PNP,35.5 min
same,TTP (time to peak),[2]; FX (HTI) 100 μg/mL in PNP,10.22 min
same,mVRI (mean velocity rate index),[2]; FX (HTI) 100 μg/mL in PNP,34.41 nM/min
same,LT (lag time),[2]; [9],58.31 min
same,Peak,[2]; [9],1.77 nM
same,TTP (time to peak),[2]; [9],62.15 min
same,mVRI (mean velocity rate index),[2]; [9],0.46 nM/min
same,correction of thrombin generation of plasma overloaded with Rivaroxaban,"[2]; FX up to 100 μg/ml (10 U/ml), Rivaroxaban 0.5 μg/mL",does not correct
same,PT (RecombiPlastin ISI: 1.0),[3]; FX (HTI) 10 μg/mL final in PNP,11.1 s
same,PT (RecombiPlastin ISI: 1.0),[3]; [7],29.3 s
